Values quoted from earlier work, collected in patent US12018014B2, “Pyrrole-substituted indolone derivative or pharmaceutically acceptable salts thereof, and preparation method therefor and application thereof” (SUZHOU GENHOUSE PHARMACEUTICAL CO., LTD., priority 2018, dated 2024).

System: FLT3-ITD phosphorylation
Conditions: single administration; cited from earlier work

Q: For `CCN(CC)CCNC(=O)c1c(C)[nH]c(/C=C2\C(=O)Nc3ccc(F)cc32)c1C` [Sunitinib], which “duration of FLT3-ITD phosphorylation inhibitory effect” value is on record?
A: The value was 16 h.
